In patent publication US10918657B2 (priority 2013, dated 2021):

How the values were obtained:
Assay type in all cases: in vivo, Petromyzon marinus
giant RS axons = test: NF-180 immunolabeled axon count (axon regeneration) after spinal cord transection; conditions: morpholino 10 μg; 11 weeks post-injury; ventral half of spinal cord
[1] = test system: giant reticulospinal (RS) neurons; test: Synuclein immunofluorescence in giant RS neurons after spinal cord transection; conditions: morpholino 10 μg at time and site of transection; 11 weeks post-transection; mean±S.E.M.
[2] = test system: giant reticulospinal (RS) neurons; test: Nissl staining of giant RS neurons (neuronal survival) after spinal cord transection; conditions: morpholino 10 μg; 11 weeks post-transection; mean±S.E.M.

Substance: 5′-CGCGTCCATTCCTCTTTCTTTGTCT-3′
- increase in number of NF-180 labeled axons proximal, within, and distal to the lesion (giant RS axons): 2 fold
- synuclein immunofluorescence intensity in good survivors [1]: 17.7±1.4 AU
- synuclein immunofluorescence intensity in poor survivors [1]: 26.5±2.5 AU
- survival of the giant RS neurons at the population level (Nissl (+)) [2]: 72.1±3.2
